For 19 molecules, activity score results are on record in PubChem BioAssay AID602363 (Broad Institute, 2012).

The structures appear in SMILES notation. In all, about 350,000 compounds went through this assay and about 450 (0.13%) were called active. This excerpt belongs to a sample that is enriched for actives. Unmarked numbers belong to inactive results.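 The calls were made as follows: active = replicate mean at a twofold rise or more (about +100% in these data); inactive = the rest.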

The experiment in a line: UUG initiation codon usage in yeast – whole organism, S. cerevisiae, single point, plate reader, primary screen (AID 602363).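 Also: firefly luciferase made from a UUG start codon reports start codon fidelity.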 The following applies: S. cerevisiae UUG-firefly luciferase reporter, luminescence/redox ratio; at 18.7 µM; stronger effect = higher value.
In the case of `O=C(C[C@H]1C[C@H]2c3cc(NC(=O)NC4CCCC4)ccc3O[C@H]2[C@H](CO)O1)NCCc1ccccc1`, the activity score was -18.1%.
On to `C[C@@H]1CN([C@H](C)CO)C(=O)c2cc(NS(=O)(=O)c3ccccc3)ccc2O[C@@H](C)CCCCO[C@H]1CN(C)C(=O)C1CCCCC1`, for which the activity score was 18.3%.
On to `CCC(=O)N1[C@@H](CO)[C@H](c2ccc(-c3cccc(F)c3)cc2)[C@@H]1CNC(C)=O`, for which the activity score is 2%.
For the molecule `C[C@H](CO)N1C[C@H](C)[C@@H](CN(C)S(=O)(=O)c2cccs2)Oc2ccc(NC(=O)Nc3cccc4ccccc34)cc2CC1=O`, the activity score was -2.1%.
`C[C@@H]1CN([C@H](C)CO)C(=O)c2cccc(NC(=O)Nc3ccccc3)c2O[C@H]1CN(C)S(C)(=O)=O`: the activity score was 1.91%.
On to `C[C@@H]1CN([C@H](C)CO)C(=O)c2cc(NS(=O)(=O)c3ccc(F)cc3)ccc2O[C@H]1CN(C)C(=O)Nc1cccc2ccccc12`, for which the activity score is -5.16%.
Turning to `CCC(=O)N(C)C[C@H]1Oc2cc(C#CC3CCCC3)ccc2S(=O)(=O)N([C@H](C)CO)C[C@@H]1C`, the activity score was -3%.
As for `COc1ccccc1-c1cn(CC[C@H]2CC[C@@H](NC(=O)CCN3CCCCC3)[C@@H](CO)O2)nn1`, the activity score was 7.11%.
With `O=C(Cc1ccccn1)NCC[C@H]1CC[C@H](NS(=O)(=O)c2ccccc2)[C@@H](CO)O1`, the activity score was 7.13%.
As to `COc1cccc(S(=O)(=O)Nc2ccc3c(c2)C(=O)N(C)C[C@@H](OC)[C@H](C)CN(C(=O)Cc2cccnc2)[C@H](C)CO3)c1`, the activity score was -4.59%.
With `O=C1N=C(N2CCOCC2)S/C1=C\C=C/c1ccccc1`, the activity score is -1.22%.
With `O=C1N=C(N2CCc3ccccc3C2)S/C1=C\c1ccc(O)cc1`, the activity score is 376% (active).
Then `CCOc1cc(/C=C2\SC(N3CCCCC3)=NC2=O)ccc1O`, with 6.38%; and `Cc1cc(C)c(S(=O)(=O)Nc2c(C)n(C)n(-c3ccccc3)c2=O)cc1[N+](=O)[O-]`, with 3.79%; and `Cc1c(NC(=O)c2c([N+](=O)[O-])cnn2C)c(=O)n(-c2ccccc2)n1C`, with -20.3%.
Then `Cc1c(Nc2cc(N3CCCC(C)C3)c3nonc3c2[N+](=O)[O-])c(=O)n(-c2ccccc2)n1C` (centres undefined), with 273% (active).
As for `CCc1ccc(N(C(=O)c2csnn2)C(C(=O)NC2CCCCC2)c2ccncc2)cc1` (centres undefined), the activity score is -16.9%.
For `O=C(NC1CCCCC1)C1CCCN(S(=O)(=O)c2cccs2)C1` (centres undefined), the activity score was -10.8%.
On to `CC1CCCN(S(=O)(=O)c2ccc(N(C(=O)c3cnccn3)C(C(=O)NC3CCCCC3)c3cccs3)cc2)C1` (centres undefined), for which the activity score is 130% (active).
